Laboratory results as given in US20250221953A1 (The University of Chicago, priority 2022, published 2025).

Test system: Jurkat T cells
Assay type: cell-based, human
Conditions: IL-2 production level in treated group compared to control group; 48 hours treatment, then anti-CD3/anti-CD28 12 hours
From the text: Two preliminary screens were designed and performed.
To construct “blood chemical compound library for cell-based screening purposes, components such as antibodies that are difficult to distinguish due to a wide variety, and some supplements that only function at a whole organism level including fish oils and herbs were excluded. Physiological ranges of serum levels of individual blood chemicals are available in the human metabolome database (https://hmdb.ca/) and applied in the experimental design. For first screen 1a, Jurkat T cells were treated with blood chemical library for 48 hours and then activated with 2.5 μg/mL anti-CD3 and 0.5 μg/mL anti-CD28 antibodies for another 12 hours, followed by measurement of IL-2 level in medium supernatant using ELISA kit (Biolegend). For first screen 1b, 1×10^5 PD-1^+ Jurkat T cells were co-cultured with 2×10^4 H596 (PD-L1^+) cells in a well of 96-well plate for 60 hours, and then activated with 2.5 μg/mL anti-CD3 and 0.5 μg/mL anti-CD28 antibodies for another 12 hours, followed by measurement of IL-2 level in medium supernatant using ELISA kit.

| Substance | Relative changed percentage (%) |
| --- | --- |
| CHORIONIC GONADOTROPIN HUMAN [CHORIONIC GONADOTROPIN HUMAN,] | 26.68 |
| ALBUMIN HUMAN | 38.34 |
